From publication PMC7473772 (eLife, 2020) come the findings set out here.

The target in assay [1] is T1, aqp1/aqp2/aqp3 null cells expressing TbAQP2-WT (Trypanosoma brucei brucei, UniProt Q6ZXT3).
T1 sequence (Q6ZXT3 1-312): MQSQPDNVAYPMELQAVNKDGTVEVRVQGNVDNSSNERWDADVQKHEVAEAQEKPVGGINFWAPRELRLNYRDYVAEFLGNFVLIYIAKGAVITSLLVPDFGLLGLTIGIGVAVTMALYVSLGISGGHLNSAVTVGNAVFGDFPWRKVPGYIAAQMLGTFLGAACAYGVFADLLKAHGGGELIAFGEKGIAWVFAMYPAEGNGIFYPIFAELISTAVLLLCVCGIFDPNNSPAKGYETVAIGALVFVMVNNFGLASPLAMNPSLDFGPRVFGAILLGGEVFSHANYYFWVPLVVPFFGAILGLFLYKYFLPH
The assay can be described thus: Inhibition of [3H]-glycerol uptake. As to conditions: for glycerol uptake: zero inhibitor point 0.002246. On the set-up: glycerol uptake: unit not given here. The assay is classed as cell-based.

The target of assay [2] is T1, aqp1/aqp2/aqp3 null cells expressing TbAQP2-WT. The assay can be described thus: Inhibition of [3H]-pentamidine uptake (dose response). It is filed as cell-based. On the set-up: unit not given here. To be noted: zero inhibitor point 0.01011.

Broadly, the IC50 is the point on the concentration scale where inhibition reaches its midpoint. Regarding “carbonyl cyanide m-chlorophenyl hydrazone [CCCP]”, in assay [1] ([…] [3H]-glycerol, 1 min), the IC50 was determined as 20.7 ± 2.6 µM. For the same substance, the glycerol uptake in assay [1] (log[inhibitor] -4.00) worked out at 0.000295; in assay [1] (log[inhibitor] -4.48), 0.000656; in assay [1] (log[inhibitor] -5.00), 0.001512; in assay [1] (log[inhibitor] -5.48), 0.00208; in assay [1] (log[inhibitor] -6.00), 0.002357; in assay [1] (log[inhibitor] -6.48) it was 0.002172. The pentamidine uptake was found to be 0.003012 in assay [2] (log[inhibitor] -4.00); 0.00483 in assay [2] (log[inhibitor] -4.48); 0.007941 in assay [2] (log[inhibitor] -5.00); 0.01034 in assay [2] (log[inhibitor] -5.48); 0.01003 in assay [2] (log[inhibitor] -6.00); 0.0106 in assay [2] (log[inhibitor] -6.48).
